Source: US8158621B2, “Methods of treating or preventing autoimmune diseases with 2,4-pyrimidinediamine compounds” (Rigel Pharmaceuticals, Inc., priority 2002, dated 2012)

Experiments:
[1] = test system: bone marrow derived mast cells (BMMC); test: BMMC high cell density IgE activation: hexosaminidase; format: cell-based, mouse; conditions: read-out: BMMC anti-IgE hexos
Description: After sensitizing, cells are counted, pelleted (1000 rpm, 5-10 minutes), and resuspended at 1-3×10^6 cells/ml in MT buffer. Add 100 ul of cell suspension to each well and 100 ul of compound dilutions. The final vehicle concentration is 0.5% DMSO. Incubate at 37° C. (5% CO2) for 1 hour. After 1 hour of compound treatment, stimulate cells with 6× stimulus (60 ng/ml DNP-BSA). Mix wells with the cells and allow plates to incubate at 37° C. (5% CO2) for one hour. After 1 hour incubation, pellet cells (10 minutes, 1000 RPM) and collect 200 ul per well of the supernatant, being careful not to disturb pellet, and transfer to a clean tube or 96-well plate. Place the supernatant plate on ice. During the 4-5 hour step (see next) perform the hexosiminidase assay. Resuspend cell pellet in 240 ul WEI-conditioned media containing 0.5% DMSO and corresponding concentration of compound. […] After incubation, pellet cells (1000 RPM, 10 minutes) and collect 225 ul per well and place in −80° C. until ready to perform ELISAS. ELISAS are performed on appropriately diluted samples (determined empirically for each donor cell population so that the sample measurement falls within the standard curve) following the supplier's instructions.
Add 50 uL of BMMC cell supernatant (see above) to the hexoseaminidase substrate, place at 37° C. for 30 minutes and read the plate at 5, 10, 15, and 30 minutes on a spectrophotometer.

[2] = test system: bone marrow derived mast cells (BMMC); test: BMMC high cell density IgE activation: LTC4; format: cell-based, mouse; conditions: read-out: BMMC anti-IgE LTC4
Description: After sensitizing, cells are counted, pelleted (1000 rpm, 5-10 minutes), and resuspended at 1-3×10^6 cells/ml in MT buffer. Add 100 ul of cell suspension to each well and 100 ul of compound dilutions. The final vehicle concentration is 0.5% DMSO. Incubate at 37° C. (5% CO2) for 1 hour. After 1 hour of compound treatment, stimulate cells with 6× stimulus (60 ng/ml DNP-BSA). Mix wells with the cells and allow plates to incubate at 37° C. (5% CO2) for one hour. After 1 hour incubation, pellet cells (10 minutes, 1000 RPM) and collect 200 ul per well of the supernatant, being careful not to disturb pellet, and transfer to a clean tube or 96-well plate. Place the supernatant plate on ice. During the 4-5 hour step (see next) perform the hexosiminidase assay. Resuspend cell pellet in 240 ul WEI-conditioned media containing 0.5% DMSO and corresponding concentration of compound. Incubate BMMC cells for 4-5 hours at 37° C. (5% CO2). After incubation, pellet cells (1000 RPM, 10 minutes) and collect 225 ul per well and place in −80° C. until ready to perform ELISAS. ELISAS are performed on appropriately diluted samples (determined empirically for each donor cell population so that the sample measurement falls within the standard curve) following the supplier's instructions.

`COc1cc(Nc2ncc(F)c(Nc3ccc4c(c3)OCCO4)n2)cc(OC)c1` [Compound R926791] was tested, and the IC50 [1] was 64 nM and the IC50 [2] was 896 nM.
